Screening results (PubChem)
Shown are actives, neighbours in structure and some others; about 0.34% of the full set was active somewhere.
Vif-APOBEC3G blk: blocks the Vif interaction with human APOBEC3G; Q9HC16; Potency, µM (series often up to 46.1 µM), inactives show at the top dose activity, negative = active, actives largely listed as inhibitors; AID 602310; hit rate 0.076% among 410,000; HeLa A3G-eYFP + Vif (tagged APOBEC3G with the HIV-1 protein that degrades it), YFP fluorescence, overnight; note: potency is the fitted concentration of half-maximal effect; % is set by controls: 0 for no effect and ±100 for the full control effect; nearly all actives have a fitted effect of over 60% in size
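HeLa cells stably expressing Vif and C-terminally eYFP-tagged A3G, seeded overnight at 37 deg C, then exposed to compound by pintool overnight at 37 deg C. Rise in yellow fluorescence (Ex 488/Em 500-530, Acumen) marks blocked Vif-driven A3G degradation.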
Epigenetic reg: derepresses silenced GFP reporter in murine cells; hit rate 0.2% among 280,000; murine LDR cells, GFP reporter derepression, 30 h; Potency, µM (series often up to 53.9 µM), without a hit: at the top dose GFP activation, hits mostly activators; AID 1865; note: potency is the fitted concentration of half-maximal effect; % of control where 0% means no effect; nearly all actives have a fitted effect of over 60% in size
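Readout is the number of GFP-expressing murine LDR cells, counted by cytometry following washing. Cells were treated with compound for 30 h at 37 C; the stably integrated CMV-GFP locus is normally silent.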
miR-21 reporter: raises the signal of a miR-21 reporter; HeLa miR-21 FLuc reporter, luciferase, 48 h; Potency, µM (series often up to 38.3 µM), inactives show top-dose reporter change, positive = more light; 340,000 tested, under 10 active; active = well fitted rising curve with a large enough effect; inconclusive = small, poorly fitted or top-dose-only effect; inactive = no such curve, though single readings can be large or run the other way;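 also: % of control where 0% means no effect; miR-21 action dims this reporter so a rising signal means less miR-21 action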
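HeLa cells stably expressing CMV-driven firefly luciferase with a downstream miR-21 binding sequence, endogenously expressing miR-21, were treated with titrations (up to about 40uM final) for 48 hours at 37 degree Celsius. Luciferase luminescence was read after lysis.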
Vif-A3F inh: Vif-A3F binding inhibition; HeLa A3F-eYFP + Vif (tagged APOBEC3F with the HIV-1 protein that degrades it), YFP fluorescence increase; Potency, µM (series often up to 46.1 µM), without a hit: at the highest dose activity, negative = active; hit rate 0.2% among 390,000; note: potency is the fitted concentration of half-maximal effect; % of control where 0% means no effect; nearly all actives have a fitted effect of over 65% in size
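HeLa cells stably expressing Vif plus C-terminally eYFP-tagged A3F were seeded, incubated overnight at 37 deg C, dosed with compound, incubated overnight again at 37 deg C. Yellow fluorescence (Ex 488/Em 500-530) reported blocked Vif-mediated A3F-eYFP degradation.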
Parental c127i: counter-screen for epigenetic modulators: effect in parental c127i cells | mouse c127i parental cells, fluorescent cell count, 30 h | Potency, µM, without a hit: at the top dose fluorescent cell count, usual class: activators | hit rate 20% among 60 | AID 493065 | shares compounds with Epigenetic reg
An asterisk follows results filed as active; ? = inconclusive; · = no result given. Unless noted, calls come from the whole dose curve; as a rule, active = well fitted curve in the direction sought with a large enough effect; inconclusive = small, poorly fitted or top-dose-only effect, or another doubt; inactive = no such curve, though single readings can be large; an effect the other way counts as inactive or inconclusive.

SMILES	Vif-APOBEC3G blk	Epigenetic reg	miR-21 reporter	Vif-A3F inh	Parental c127i
C[C@H]1C[C@@H](C)C(=O)[C@@H]([C@H](O)CC2CC(=O)NC(=O)C2)C1	-5%	?	?	2%	3%
O=C(NCCSc1c(-c2ccccc2)[nH]c2ccccc12)c1ccc(S(=O)(=O)N2CCOCC2)cc1	1%	0%	?	0%	·
CCN(CC)c1ccc2c(c1)oc(=O)c1c(Cl)cc(=O)oc12	?	8.9µM*	-4%	25µM*	32µM*
CC(n1cc(C[C@H](N)C(=O)O)c2ccccc21)n1cc(C[C@H](N)C(=O)O)c2ccccc21	·	1%	·	·	·
CCOc1ccc(CCNC(=O)c2ccc(-n3c(C)cc4c3CCCC4)cc2)cc1OCC	0%	?	25%	?	·

A stretch from further up:
SMILES	Vif-APOBEC3G blk	Epigenetic reg	miR-21 reporter	Vif-A3F inh	Parental c127i
CC(n1cc(C[C@H](N)C(=O)O)c2ccccc21)n1cc(C[C@H](N)C(=O)O)c2ccccc21	·	1%	·	·	·
CCOc1ccc(CCNC(=O)c2ccc(-n3c(C)cc4c3CCCC4)cc2)cc1OCC	0%	?	25%	?	·
